# Apparent affinities of Ab-95 variants for a coronavirus HR2 peptide

Target: peptide PDVDLGDISGINAS, taken from heptad repeat 2 (HR2) of SARS-CoV-2 spike.

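Phage display of a naive human antibody library on the peptide gave the parent. AAYL52 was designed without a model: most single CDR substitutions and a random sample of double and triple ones. The scFvs were displayed on barcoded MATa yeast, the peptide on MATalpha yeast. Pairs that bind mate more often; barcode pairs of the diploids are counted by sequencing. Scores were corrected for input abundance and mapped to Kd with protein pairs of known affinity run in the same pool. Mating was done three times.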

Each scFv is VH, a (GGGGS)3 linker, VL, as in the parent Ab-95, and differs from it in the CDRs of the light chain only.
VH: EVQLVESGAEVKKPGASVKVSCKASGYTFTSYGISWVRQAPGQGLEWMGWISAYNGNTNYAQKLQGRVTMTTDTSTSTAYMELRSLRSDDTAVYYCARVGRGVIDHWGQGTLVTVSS
VL: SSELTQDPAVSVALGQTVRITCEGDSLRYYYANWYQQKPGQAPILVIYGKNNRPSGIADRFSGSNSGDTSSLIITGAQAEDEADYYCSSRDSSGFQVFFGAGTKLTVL

Variants are written as CDR1, CDR2 and CDR3 of the light chain (limits as in the source). Parent: EGDSLRYYYAN, GKNNRPS, SSRDSSGFQVF.
Scale: log10 of Kd in nM, estimated from mating counts; low values are strong binders.
Replicates are averaged; those with no signal do not enter the mean.
A pair that was not seen in that replicate is written "ND"; this usually means weak binding, but a binder can also be missed.
In this assay the parent's reference entry averaged 2.31; its copy inside this library read 2.25.

CDR-L1,CDR-L2,CDR-L3,log10 Kd (nM) by replicate,"mean, log10 nM",signal with controls
EGDSLRYYYAN,GMNNGPS,SSRDSSGFQVN,ND ND ND,ND,0 of 9
EGDSLRYYNAN,GKNNRPS,ISRDSCGFQVF,1.39 1.22 1.21,1.27,3 of 9 (3.56)
NGDSLRYYYAN,GKNNRPS,SSRDASGFQNF,2.07 2.37 1.95,2.13,0 of 9
EGDYLRYYYAN,GKNMRPS,SSCDSSGFQVF,ND 2.12 ND,2.12,3 of 9 (3.95)
EADSKRYYYAN,GKANRPS,SSRDSSGFQVF,4.29 ND ND,4.29,2 of 9 (4.00)
EGDSLRYYYAN,GKNNDPS,SSLISSGFQVF,3.55 ND 3.92,3.74,6 of 9 (4.00)
EGDSLRYYYAN,GKNNPPS,SMLDSSGFQVF,ND 4.42 ND,4.42,1 of 9 (3.58)
EGDQLRYYYAN,GKNNRPS,NSRDFSGFQVF,ND ND 2.71,2.71,0 of 9
ECDSLRYYYAN,AKNNRPS,SSRDSFGFQVF,5.23 3.51 ND,4.37,1 of 9 (4.92)
EGDVLRYYYAN,GKGNRPS,SSRDSSGFQYF,ND 4.87 4.08,4.48,2 of 9 (4.00)
YGDSLRYYYAN,GKNNRES,SSRDSSCFQVF,ND 3.77 ND,3.77,0 of 9
EGDSLRYYYAN,GKNNGPS,ISRDSSGFQVG,3.23 ND 4.19,3.71,5 of 9 (3.70)
EGDSLRYYYAN,GKNNYPS,SSRDSSGRQVF,3.37 2.95 2.60,2.97,2 of 9 (4.69)
EGDHLRYYYAN,GKNNLPS,SSRDSSGFQVF,2.95 3.81 3.21,3.32,5 of 9 (3.68)
EGDSQRYYYAN,GKNVRPS,SSRDSSGFQVI,3.17 3.18 3.16,3.17,0 of 9
EGDSLRYYYAA,GKNNNPS,SSRDSSGFGVF,ND 3.90 3.28,3.59,0 of 9
HGDSLRYYYAN,GKMNRPS,SSRDSSGFNVF,3.02 2.45 2.55,2.67,3 of 9 (3.96)
EGDSLRYWYAN,GKPVRPS,SSRDSSGFQVF,ND 3.15 ND,3.15,2 of 9 (3.47)
EGDRLRYYYAN,GKNNRPS,SSRDSHGFKVF,ND 4.93 ND,4.93,2 of 9 (3.74)
EADSLRYYYAN,GKWNRPS,SSRDSDGFQVF,4.50 ND ND,4.50,1 of 9 (4.85)
EGDGLRYYYAN,GKNNRPC,SSRDSSGFQVV,3.18 2.99 3.03,3.07,2 of 9 (3.60)
EGDGCRYYYAN,GKNNRPS,SSRTSSGFQVF,4.28 ND ND,4.28,5 of 9 (3.76)
EGDSLRDTYFN,GKNNRPS,SSRDSSGFQVF,2.03 1.96 1.58,1.86,2 of 9 (4.15)
EGDSLRYYYAN,GSNNRPS,SSRDSIGVQVF,2.59 4.48 2.95,3.34,3 of 9 (4.27)
EGDRLRYYYAN,GKNNNPS,SSGDSSGFQVF,ND ND ND,ND,2 of 9 (3.52)
EGDSNRYYYAN,GKNNRPS,SKRDSSGFKVF,5.29 ND 3.17,4.23,4 of 9 (3.64)
EGESLRYYYAN,GKNNRRS,SSRDSSGFYVF,ND ND ND,ND,0 of 9
EGDSLRYYYAN,GKNNRPS,SVFDASGFQVF,3.05 2.39 2.76,2.74,3 of 9 (3.61)
SGDSLRYYYAN,SKNNRPS,SSRSSSGFQVF,2.74 3.11 3.23,3.02,6 of 9 (3.90)
EGDSERYFYAN,GKNNRPS,SLRDSSGFQVF,ND ND 4.10,4.10,5 of 9 (3.76)

3 of these entries, quoted again:

CDR-L1,CDR-L2,CDR-L3,log10 Kd (nM) by replicate,"mean, log10 nM",signal with controls
EGDSLRYYYAN,GSNNRPS,SSRDSIGVQVF,2.59 4.48 2.95,3.34,3 of 9 (4.27)
EGDGLRYYYAN,GKNNRPC,SSRDSSGFQVV,3.18 2.99 3.03,3.07,2 of 9 (3.60)
EGDGCRYYYAN,GKNNRPS,SSRTSSGFQVF,4.28 ND ND,4.28,5 of 9 (3.76)

As a blank, each scFv also met three strains without target: over library AAYL52, 28% of these pairings were detected, typically at 3.91 and seldom below 2.90. The control count says in how many pairings with the empty strains this scFv gave a signal, with their mean in brackets.

Values reported by Engelhart et al. 2022, doi:10.1038/s41597-022-01779-4 (FLAb copy).